The values that follow are results of earlier work, collected in patent US6700032B1, “Wound care management” (Leatherite Pty Limited, priority 1996, dated 2004).

For “2,4,4′-trichloro-2′-hydroxy diphenyl ether [Triclosan]”, the “solubility in organic solvents” value (many organic solvents) was “highly soluble”. Also, the solubility in water entry (water) is reported as “poorly soluble”.
